According to patent US20100075343A1, “NOVEL PEPTIDES” (priority 2007, published 2010):

System: antiserum against ESPGPERVW peptide of human VGF
Type: binding
Details: 1, 10, and 100 pmol of the peptides
Procedure: Namely, to 100 μL of antiserum diluted 9×10^5 folds with RIA buffer, 100 μL of RIA buffer containing a fixed amount of [^125I]-labeled Peptide 1 (approximately 20000 cpm, 500-550 Bq, approximately 9 fmol in terms of peptide amount) and 100 μL of RIA buffer solutions each containing a sequentially diluted VGF-derived peptide were added, this was incubated at 4° C. for 40 hours, and the labeled Peptide 1 and VGF-derived peptide were competitively bound to the antibody in the antiserum. […] Reactions for non-specific binding were performed in quadruplicates, and the other reactions were performed in duplicates, and for each of the reactants, the immune complex was precipitated as in the above-mentioned antibody titer measurements, and its radioactivity (cpm) was measured. The average radioactivity of non-specific binding reaction is defined as non-specific binding level N, the radioactivity value for each VGF-derived peptide addition reaction is defined as Y, and the radioactivity value of maximum binding reaction is defined as Z. The percentage ratio (B/B0) of antiserum specific binding level (B) with peptide addition to the maximum binding level (B0), was determined using the following formula. […]

calcitonin gene-related peptide
inhibition of binding of the antiserum to labeled peptide: none of these peptides showed inhibition
